# Experimental data taken from PMC11748689, “Pharmacological and structural understanding of the Trypanosoma cruzi proteasome provides key insights for developing site-specific inhibitors” (The Journal of Biological Chemistry, 2024).
# Legend:
# Assay type in all cases: biochemical
# [1] = molecular target: native T. cruzi proteasome (chymotrypsin-like activity, β5) (Trypanosoma cruzi, UniProt V5BU39+V5C017); experiment: Chymotrypsin-like activity assay (Proteasome-Glo), native T. cruzi proteasome
# Protocol: (§1) Chymotrypsin-, trypsin-, and caspase-like activity assays were performed using a commercially available Proteasome-Glo 3-substrate system assay kit (catalog number G8532) (Promega Corporation) according to the manufacturers protocols and as previously described ([24]).
# Prior to running assays, Proteasome-Glo buffer was used to reconstitute the luciferin detection reagent (containing a recombinant thermostable luciferase enzyme). The resuspended luciferin detection reagent was then mixed with Proteasome-Glo chymotrypsin-, trypsin- or caspase-like substrates (either 40 μM suc-Leu-Leu-Val-Tyr-aminoluciferin, 30 μM Z-Leu-Arg-Arg-aminoluciferin (Z is benzyloxycarbonyl) or 40 μM Z-Nle-Pro-Nle-Asp-aminoluciferin respectively (these concentrations represent 2x final assay concentrations)). These substrate mixtures were allowed to incubate at room temperature for 60 min prior to use to allow the removal of any contaminating free aminoluciferin. […]
# Following the 60 min incubation of proteasome and compounds, assays were initiated with the addition of 4 μl of a substrate mix (containing substrate and the luciferin detection reagent) using an electronic multichannel pipette. […] Following a further 60 min assay incubation, luminescence was read using an EnVision 2102 Multilabel Reader (PerkinElmer, Inc) with 0.2 s per well reading time. […]
# [2] = molecular target: recombinant WT T. cruzi proteasome (chymotrypsin-like activity, β5) (Trypanosoma cruzi, UniProt V5BU39+V5C017); experiment: biochemical
# Protocol: as §1
# (§2) Prior to running assays, Proteasome-Glo buffer was used to reconstitute the luciferin detection reagent (containing a recombinant thermostable luciferase enzyme). The resuspended luciferin detection reagent was then mixed with Proteasome-Glo chymotrypsin-, trypsin- or caspase-like substrates (either 40 μM suc-Leu-Leu-Val-Tyr-aminoluciferin, 30 μM Z-Leu-Arg-Arg-aminoluciferin (Z is benzyloxycarbonyl) or 40 μM Z-Nle-Pro-Nle-Asp-aminoluciferin respectively (these concentrations represent 2x final assay concentrations)). These substrate mixtures were allowed to incubate at room temperature for 60 min prior to use to allow the removal of any contaminating free aminoluciferin.
# Proteasome assays were carried out using 384-well, white, low-volume plates (catalog number 784904) (Greiner Bio-One) at room temperature (∼23 °C) in 8 μl reaction volumes. […]
# (§3) A 1 in 2 dilution series of the various T. cruzi proteasome samples (native, recombinant WT, β4^R mutant, and Δβ1Δβ2 mutant) were produced in assay buffer (50 mM Tris–HCl, pH 7.5, 10 mM sucrose, 5 mM MgCl2, 1 mM DTT, 2 mM ATP, 150 mM NaCl, 1 mM EDTA, and 0.05 mg/ml bovine serum albumin). […] When kinetic read activity checks were performed (Fig. 2), proteasome final assay concentrations used were 115 μg/ml, 115 μg/ml, and 230 μg/ml native proteasome (in the chymotrypsin, trypsin, and caspase assays, respectively), and 4.1 μg/ml, 3.4 μg/ml, or 1.4 μg/ml recombinant WT proteasome (in the chymotrypsin, trypsin, and caspase assays, respectively). […]
# (§4) Luminescence was read either kinetically or as an endpoint read using an EnVision 2102 Multilabel Reader (PerkinElmer, Inc) with 0.2 s per well reading time. When kinetic assays were run, luminescence was read every 5 min for 90 min. Endpoint assays were run for 60 min before luminescence was read. […]
# [3] = molecular target: recombinant Δβ1Δβ2 mutant T. cruzi proteasome (chymotrypsin-like activity) (Trypanosoma cruzi, UniProt V5BU39+V5C017); experiment: biochemical
# Protocol: (§5) Point mutations were created in individual subunits using overlapping PCR from the original templates using Polh and Tn7L primers outside the genes and suitable internal primers to introduce selected mutations. For Δβ1Δβ2, β1 Thr 55, and β2 Thr 67 were both mutated to Ala, the β4^R mutant was produced by mutating Phe 24 and Ile 29 to Leu and Met respectively in β4 subunit.
# as §1, §2
# (§6) Proteasome assays were carried out using 384-well, white, low-volume plates (catalog number 784904) (Greiner Bio-One) at room temperature (∼23 °C) in 8 μl reaction volumes. When activity checks were to be run in the presence or absence of a fixed concentration of proteasome inhibitor, 80 nL of the inhibitor (at a concentration 100x the required final assay concentration), or 80 nL dimethylsulfoxide (DMSO), were dispensed into assay plates using an Echo 550 acoustic dispenser (Labcyte).
# as §3, §4
# [4] = molecular target: recombinant β4^R mutant T. cruzi proteasome (chymotrypsin-like activity) (Trypanosoma cruzi, UniProt V5BU39+V5C017, F24L/I29M); experiment: biochemical
# Protocol: as §5, §1, §2, §6, §3, §4
smiles,measurement,setting,value
COC[C@H](NC(=O)c1cnc(C)s1)C(=O)N[C@@H](COC)C(=O)N[C@@H](Cc1ccccc1)C(=O)[C@@]1(C)CO1 [Oprozomib],IC50,[1],89.1 nM
same,"extent of inhibition in chymotrypsin dose-response curve, native proteasome",[1]; top of dose-response curve,partial inhibition profile
same,IC50,[2],93.3 nM
same,"maximum % inhibition plateau, Chymotrypsin Assay, Wild-type","[2]; mean ± SD, N = 3 (N = 2 for DDD02091966), (a) mid-point plateau from biphasic curve fits",79.0 ± 2.3%
same,"extent of inhibition in chymotrypsin dose-response curve, recombinant WT proteasome",[2]; top of dose-response curve,partial inhibition profile
same,IC50,[3],95.5 nM
same,"extent of inhibition in chymotrypsin dose-response curve, Δβ1Δβ2 mutant",[3]; top of dose-response curve,full inhibition
same,IC50,[4],74.1 nM
same,"extent of inhibition in chymotrypsin dose-response curve, β4^R mutant",[4]; top of dose-response curve,partial inhibition profile
